Where two headings read alike, the source gives them in different places.
System: nAChRs
Settings: read-out: EC50 (±SEM), Total DA release

For `c1cncc(C2CC3CCN2CC3)c1` (stereo not drawn), the EC50 was 9.3 nM, the EC50 (ST/OT, L9′S line 2) was 2.2 nM and the EC50 (ST/OT, L9′S line 5) was 2.6 nM.

Source: patent US20090100532A1, “TRANSGENIC MICE EXPRESSING HYPERSENSITIVE NICOTINIC RECEPTORS” (CALIFORNIA INSTITUTE OF TECHNOLOGY, priority 2007, published 2009)
